The values below come from PubChem BioAssay AID504845 (National Center for Advancing Translational Sciences (NCATS), 2011).

Sequences of proteins named here, by UniProt entry; tags and fusion partners are left off.
UniProt P49798, whole entry: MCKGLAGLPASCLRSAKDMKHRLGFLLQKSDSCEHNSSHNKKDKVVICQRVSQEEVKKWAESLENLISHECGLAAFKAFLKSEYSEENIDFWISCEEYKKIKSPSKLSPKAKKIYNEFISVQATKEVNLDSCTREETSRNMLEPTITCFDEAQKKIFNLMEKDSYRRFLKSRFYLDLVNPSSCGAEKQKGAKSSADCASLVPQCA

The structures appear in SMILES notation. Where “and” joins values, the source holds several entries; their conditions need not be identical. Identical values can stand only once. Only a part is listed here, and it is no random draw. Some tests of the compounds listed are not included; inactive here does not mean inactive elsewhere. Inconclusive results are not listed. Calls of active or inactive are those of the source. Calls come from the whole dose curve; as a rule, active = well fitted inhibition curve with a large enough effect; inconclusive = small, poorly fitted or top-dose-only effect; inactive = no such curve, though single readings can be large or run the other way.
% is set by controls: 0 for no effect and ±100 for the full control effect.

This test deals with Regulator of G-protein signaling 4 (Homo sapiens) (UniProt P49798). Kind of test: Inhibitors of Regulator of G Protein Signaling (RGS) 4: qHTS. Note: nearly all actives have a fitted effect of over 75% in size. Conditions: Transcreener GDP fluorescence polarization, RGS4-accelerated GTP hydrolysis; at 114 µM (top of the series). The source says:
G-protein-coupled receptors (GPCRs) are well-established targets for drug discovery and development. Members of the "regulator of G-protein signaling" (RGS)-protein superfamily have recently emerged as critical modulators of specific GPCR signaling pathways. […] Combining specific RGS domain inhibitors with existing GPCR agonists should potentiate cellular responses and could also increase the specificity of action of existing therapeutics. Small molecule modulators of RGS domain activity should also have clinical utility in inhibiting or potentiating the actions of endogenous GPCR agonists. In particular, the diversity of RGS proteins with highly localized and dynamically regulated distributions in the human brain makes this family of proteins attractive targets for pharmacotherapy of central nervous system (CNS) disorders such as Parkinson's disease, schizophrenia, and anxiety.
This assay was used to screen the NIH Molecular Libraries Small Molecule Repository (MLSMR) in order to identify a small molecule that inhibits RGS4.
NIH Chemical Genomics Center [NCGC]
NIH Molecular Libraries Probe Centers Network [MLPCN]
Assay Submitter (PI): David Siderovski, University of North Carolina Chapel Hill (School of Medicine)
Two microliters of 500nM (2x working concentration) is dispensed into black medium-binding solid-bottom Kalypsys plates. Then with the Kalypsys pintool 23nl of control and compounds are transferred; the control compound is […] CCG-4986 (working concentration). After a 10 minute incubation at room temperature 2ul of antibody is added with the Kalypsys dispenser; (-)RGS4/Transcreener GDP solution in columns 3 and 4 which consisted of 10nM (2x working concentration) Alexa633, 20uM GTP, and 20 ug/ml GDP antibody and (+)RGS4/Transcreener GDP solution in columns 1,2, and 5 to 48 which consists of 900nM RGS4 (2x working concentration), 10nM Alexa633, 20 ug/ml GDP antibody. The plate is centrifuged at 1000 RPM for 15 seconds to remove any possible bubbles and then incubated for 5 minutes at ambient room temperature. An initial fluorescent polarization read (620 nm/688 nm) is performed on the Envision before the plate is incubated for 90 minutes at 30 deg C at a relative humidity of 80%. The plate is once more centrifuged at 1000 RPM for 15 seconds and another Envision fluorescent polarization (620 nm/688 nm) read is carried out.
In the case of `O=C(OC1CN2CCC1CC2)C(CO)(c1ccccc1)c1ccccc1` (centres undefined), the activity change, negative = inhibition is inactive: 4.53%.
Take `COc1cccc(C(=O)NCC2(N3CCOCC3)CCCCC2)c1`: the activity change, negative = inhibition is inactive: -2.65%.
Regarding `CC(C)COc1ccc(C(=O)NCC2(N(C)C)CCCCC2)cc1`, the activity change, negative = inhibition was inactive: -4.11%.
Regarding `COc1ccc(Br)c(C(=O)NCC2(N3CCCCC3)CCCCC2)c1`, the activity change, negative = inhibition is inactive: 14.8%.
Turning to `Cc1cccc(C(=O)NCC2(N(C)C)CCCCC2)c1`, the activity change, negative = inhibition is inactive: 9.31%.
In the case of `COc1cc(C(=O)NCC2(N(C)C)CCCCC2)cc(OC)c1OC`, the activity change, negative = inhibition is inactive: 3.01%.
For the molecule `CN(C)c1cccc(C(=O)NCC2(N(C)C)CCCCC2)c1`, the activity change, negative = inhibition was inactive: -4.66%.
On to `O=C(OCCN1CCCC1)C(O)(c1ccccc1)c1ccccc1`, for which the activity change, negative = inhibition was inactive: 13.9%.
The same measure for `CC(C)Oc1ccc(C(=O)NCC2(N(C)C)CCCCC2)cc1`: inactive: 24.5% and inactive: -11.2%.
Turning to `CN(C)C1(CNC(=O)c2ccc(Br)cc2)CCCCC1`, the activity change, negative = inhibition was inactive: -7.3%.
Take `COc1cc(C(=O)NCC2(N(C)C)CCCCC2)c([N+](=O)[O-])cc1OC`: the activity change, negative = inhibition was inactive: 4.84%.
As for `COc1ccc(C(=O)NCC2(N(C)C)CCCCC2)cc1Cl`, the activity change, negative = inhibition was inactive: 23.4%.
As to `COc1ccc(Cl)cc1C(=O)NCC1(N(C)C)CCCCC1`, the activity change, negative = inhibition was inactive: -2.42%.
In the case of `COc1cccc(C(=O)NCC2(N3CCCCC3)CCCCC2)c1`, the activity change, negative = inhibition was inactive: -8.66%.
As to `O=C(NCC1(N2CCCCC2)CCCCC1)c1cccc(Cl)c1`, the activity change, negative = inhibition was inactive: -12.8%.
As to `CN(C)c1ccc(C(=O)NCC2(N(C)C)CCCCC2)cc1`, the activity change, negative = inhibition was inactive: 14.2%.
For the molecule `CN(C)C1(CNC(=O)c2ccccc2[N+](=O)[O-])CCCCC1`, the activity change, negative = inhibition is inactive: -13.9%.
In the case of `Cc1ccccc1C(=O)NCC1(N2CCCCC2)CCCCC1`, the activity change, negative = inhibition was inactive: 2.68%.
On to `CCCCOc1ccccc1C(=O)NCC1(N(C)C)CCCCC1`, for which the activity change, negative = inhibition was inactive: 27.6%.
The same measure for `O=C(NCC1(N2CCCCC2)CCCCC1)c1cc(F)c(F)cc1Cl`: inactive: -31.2%.
In the case of `C=CCN1CCN(CCOC(=O)C(O)(c2ccccc2)c2ccccc2)CC1`, the activity change, negative = inhibition is inactive: -8.15%.
`O=C(NCC1(N2CCCCC2)CCCCC1)c1cccc(Br)c1`: the activity change, negative = inhibition was inactive: 14.7%.
On to `Cc1cc(C(=O)NCC2(N3CCCCC3)CCCCC2)ccc1[N+](=O)[O-]`, for which the activity change, negative = inhibition was inactive: 18.7%.
On to `CCN1CCCC(OC(=O)C2(O)c3ccccc3C=Cc3ccccc32)C1` (centres undefined), for which the activity change, negative = inhibition was inactive: -41.4%.
On to `CCOc1cccc(C(=O)NCC2(N(C)C)CCCCC2)c1`, for which the activity change, negative = inhibition was inactive: 2.83%.
For `COc1ccc(C(=O)NCC2(N(C)C)CCCCC2)cc1`, the activity change, negative = inhibition was inactive: -2.76%.
To `O=C(NCC1(N2CCCCC2)CCCCC1)c1cc([N+](=O)[O-])ccc1Cl` belongs inactive: -14.7%; to `CN1[C@@H]2CC[C@H]1CC(OC(=O)C(O)(c1ccccc1)c1ccccc1)C2` (some centres undefined), inactive: 17.1%; to `CC(C)N1C(=O)CC2(CCN(CCOC(=O)C(O)(c3ccccc3)c3ccccc3)CC2)C1=O`, inactive: 4.37%.
Turning to `COc1cc(SC)ccc1C(=O)NCC1(N(C)C)CCCCC1`, the activity change, negative = inhibition is inactive: 18.3%.
For the molecule `CN(C)C1(CNC(=O)c2cccc(Cl)c2)CCCCC1`, the activity change, negative = inhibition is inactive: -12.5%.
For `CCN(CC)CC(C)C(C)OC(=O)C(O)(c1ccccc1)c1ccccc1` (centres undefined), the activity change, negative = inhibition is inactive: 3.11%.
In the case of `CN(C)C1(CNC(=O)c2ccccc2F)CCCCC1`, the activity change, negative = inhibition was inactive: -15.1%.
As for `Cc1ccc(C(=O)NCC2(N3CCCCC3)CCCCC2)cc1`, the activity change, negative = inhibition was inactive: -4.65%.
